# Measurements published in paper PMC8776733, “In vivo spatiotemporal control of voltage-gated ion channels by using photoactivatable peptidic toxins” (Nature Communications, 2022).
# Experiments:
# hNaV1.6 [1] = target: T1, hNaV1.6 (Homo sapiens, UniProt Q9UQD0); assay: Photoactivation by UV illumination combined with automated patch-clamp; type: cell-based; settings: 100 nM, no illumination
# T1 construct: expressed in transfected cells
# Description: (§1) HEK293 cells stably expressing the hNaV1.1 (XM_011511604), hNaV1.2 (XM_017004655) or hNaV1.6 (XM_011538651) channels, CHO cells transiently expressing hKV1.2 (NG_027997.2) and CHO cells stably expressing hNaV1.7 (XM_011511618) or the hERG (NM_000238) channels were cultured in Dulbecco’s Modified Eagle’s Medium (DMEM) supplemented with 10% fetal bovine serum, 1 mM pyruvic acid, 4.5 g/L glucose, 4 mM glutamine, 800 µg/mL G418, 10 U/mL penicillin and 10 μg/mL streptomycin (Gibco, Grand Island, NY). All cell lines were incubated at 37 °C in a 5% CO2 atmosphere. For electrophysiological recordings, cells were detached with trypsin and floating single cells were diluted (~300,000 cells/mL) in medium contained (in mM): […], 4 KCl, 2 CaCl2, 1 MgCl2, 5 glucose, and 10 HEPES (pH 7.4, osmolarity 298 mOsm).
# Automated patch-clamp recordings were performed using the SyncroPatch 384PE from Nanion (München, Germany). […] Current inhibition percentages were measured at equilibrium after 14 min peptide application time. […]
# The pharmacology of HwTxIV-Nvoc, as well as the efficiency of the released product to block hNaV channels was studied using combined automated patch-clamp and UV illumination. After 2 min of control, HwTxIV-Nvoc was added to the external buffer and effects were recorded for 100 s prior to a 250 s-duration illumination for photocleavage induction of the caged compound. […]
# [2] = Dark stability in solution; type: physicochemical; settings: in the dark (Supplementary Fig. 2)
# hNaV1.6 [3] = target: T1, hNaV1.6; assay: Automated patch-clamp, whole-cell Na+ current inhibition; type: cell-based; settings: currents elicited at 10 mV from holding potential -100 mV; Hill fit; read-out: IC50 for hNaV1.6 current inhibition (Fig. 2a, Fig. 3g)
# Description: as §1
# (§2) Automated patch-clamp recordings were performed using the SyncroPatch 384PE from Nanion (München, Germany). Chips with single-hole medium resistance of 4.52 ± 0.08 MΩ (n = 384) were used for recordings. Pulse generation and data collection were performed with the PatchControl384 v1.5.2 software (Nanion) and the Biomek v1.0 interface (Beckman Coulter). Whole-cell recordings were conducted according to the recommended procedures of Nanion. Cells were stored in a cell hotel reservoir at 10 °C with shaking speed at 60 RPM. After initiating the experiment, cell catching, sealing, whole-cell formation, liquid application, recording, and data acquisition were all performed sequentially and automatically. For sodium channel recordings, intracellular solution was (in mM): 10 CsCl, 110 CsF, 10 NaCl, 10 EGTA, and 10 HEPES (pH 7.2, osmolarity 280 mOsm), while being 10 KCl, 110 KF, 10 NaCl, 10 EGTA, and 10 HEPES (pH 7.2, osmolarity 280 mOsm) for potassium channel recordings. Extracellular solution was (in mM): 140 NaCl, 4 KCl, 2 CaCl2, 1 MgCl2, 5 glucose, and 10 HEPES (pH 7.4, osmolarity 298 mOsm). […] Current inhibition percentages were measured at equilibrium after 14 min peptide application time. […]
# hNaV1.2 = target: T2, hNaV1.2 (Homo sapiens, UniProt Q99250); assay: as above; type: cell-based; settings: currents elicited at 10 mV from holding potential -100 mV; Hill fit; read-out: IC50 for hNaV1.2 current inhibition (Fig. 2c)
# T2 construct: expressed in transfected cells
# Description: as §1, §2
# hNaV1.1 = target: T3, hNaV1.1 (Homo sapiens, UniProt P35498); assay: as above; type: cell-based; settings: currents elicited at 10 mV from holding potential -100 mV; Hill fit; read-out: IC50 for hNaV1.1 current inhibition (Fig. 2b)
# T3 construct: expressed in transfected cells
# Description: as §1, §2
# hNaV1.7 = target: T4, hNaV1.7 (Homo sapiens, UniProt Q15858); assay: as above; type: cell-based; settings: currents elicited at 10 mV from holding potential -100 mV; Hill fit; read-out: IC50 for hNaV1.7 current inhibition (Fig. 2d)
# T4 construct: expressed in transfected cells
smiles,measurement,setting,value
CC[C@H](C)[C@@H]1NC(=O)CNC(=O)[C@H](CC(C)C)NC(=O)[C@@H](NC(=O)CN)CSSC[C@@H]2NC(=O)[C@@H]3CSSC[C@@H](C(=O)N[C@@H](CCCCNC(=O)OCc4cc(OC)c(OC)cc4[N+](=O)[O-])C(=O)N[C@@H](Cc4ccc(O)cc4)C(=O)N[C@@H](CCC(N)=O)C(=O)N[C@H](C(=O)N[C@@H](CCCCN)C(N)=O)[C@@H](C)CC)NC(=O)[C@H](Cc4c[nH]c5ccccc45)NC(=O)[C@H](CCCNC(=N)N)NC(=O)[C@H]([C@@H](C)O)NC(=O)[C@H](CCCCN)NC(=O)[C@H](CCCNC(=N)N)NC(=O)[C@H](CO)NC(=O)[C@H](CSSC[C@H](NC(=O)[C@H](C)NC(=O)[C@H](CCCCN)NC(=O)[C@H](Cc4ccccc4)NC1=O)C(=O)N[C@@H](CC(N)=O)C(=O)N1CCC[C@H]1C(=O)N[C@@H](CO)C(=O)N[C@@H](CC(N)=O)C(=O)N[C@@H](CC(=O)O)C(=O)N[C@@H](CCC(N)=O)C(=O)N3)NC(=O)[C@H](C(C)C)NC(=O)[C@H](CC(C)C)NC(=O)[C@H](CCCCN)NC(=O)[C@H](CO)NC(=O)[C@H](CO)NC(=O)[C@H](CCCCN)NC2=O [HwTxIV-Nvoc],activity on hNaV1.6 currents before illumination,hNaV1.6 [1],inactive
same,dark stability in solution,[2],> 1 week
same,IC50,hNaV1.6 [3],6.54 µM
same,IC50,hNaV1.2,5.14 µM
same,IC50,hNaV1.1,2.79 µM
same,IC50,hNaV1.7,4.47 µM
